{"sequences": {"note": "The chains behind the UniProt entries cited, without tags or fusion partners. Residues count along the entry.", "UniProt P0A6Y8, 2-638": "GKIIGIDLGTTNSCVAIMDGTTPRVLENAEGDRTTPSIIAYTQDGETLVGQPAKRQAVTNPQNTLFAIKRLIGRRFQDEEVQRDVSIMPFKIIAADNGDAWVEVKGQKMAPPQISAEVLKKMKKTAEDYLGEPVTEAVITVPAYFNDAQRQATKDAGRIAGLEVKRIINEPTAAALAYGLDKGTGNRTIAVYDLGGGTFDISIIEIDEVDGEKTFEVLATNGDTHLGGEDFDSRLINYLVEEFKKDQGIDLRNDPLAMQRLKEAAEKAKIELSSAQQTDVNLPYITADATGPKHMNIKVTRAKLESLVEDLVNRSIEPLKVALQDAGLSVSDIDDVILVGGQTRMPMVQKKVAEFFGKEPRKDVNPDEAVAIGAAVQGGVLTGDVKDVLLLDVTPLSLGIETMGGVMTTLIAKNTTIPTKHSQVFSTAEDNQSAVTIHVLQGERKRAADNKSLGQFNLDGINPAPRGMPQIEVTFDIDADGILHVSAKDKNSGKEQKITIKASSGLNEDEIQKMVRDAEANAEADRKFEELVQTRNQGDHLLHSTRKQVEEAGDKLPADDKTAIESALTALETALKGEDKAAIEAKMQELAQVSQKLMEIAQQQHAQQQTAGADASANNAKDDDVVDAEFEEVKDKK"}, "source": "paper PMC3623542", "origin": "cited, not measured here", "target": "NRLLLTG peptide"}
{"substance": "DnaK (from UniProt P0A6Y8)", "values": [{"measurement": "Kd", "value": 5, "unit": "µM"}]}
